{"source": "paper PMC12559748", "about": "“Structural basis of drug recognition by human MATE1 transporter” (Nature Communications, 2025)", "target": "T1, human MATE1 (multidrug and toxin extrusion protein 1) (Homo sapiens, UniProt Q96FL8)", "T1 construct": "gene SLC47A1; no Fab or nanodisc", "T1 sequence (Q96FL8 1-570)": "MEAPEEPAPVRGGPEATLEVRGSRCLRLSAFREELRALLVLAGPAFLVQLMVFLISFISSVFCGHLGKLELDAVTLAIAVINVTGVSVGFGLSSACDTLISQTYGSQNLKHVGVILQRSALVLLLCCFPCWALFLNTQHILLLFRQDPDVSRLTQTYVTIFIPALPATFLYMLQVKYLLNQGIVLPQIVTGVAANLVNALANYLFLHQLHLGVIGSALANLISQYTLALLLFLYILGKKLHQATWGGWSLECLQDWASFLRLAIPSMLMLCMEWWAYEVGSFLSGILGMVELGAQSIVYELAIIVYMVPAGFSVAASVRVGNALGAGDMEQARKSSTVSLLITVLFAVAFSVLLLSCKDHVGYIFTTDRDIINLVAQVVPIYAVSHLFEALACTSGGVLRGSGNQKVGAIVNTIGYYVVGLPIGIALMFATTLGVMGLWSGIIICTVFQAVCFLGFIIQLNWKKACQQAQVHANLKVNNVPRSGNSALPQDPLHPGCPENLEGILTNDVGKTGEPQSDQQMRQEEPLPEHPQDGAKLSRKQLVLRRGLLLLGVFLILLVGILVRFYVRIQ", "test": "cryo-EM structure ([…] Å); IC50 from competition of […]H-MPP+ uptake in HEK293 cells", "assay_type": "cell-based", "data": [{"molecule": "CN/C(=N/CCSCc1nc[nH]c1C)NC#N", "note": "[CMT, cimetidine]", "values": [{"measurement": "IC50", "result": "2.7 ± 0.7", "unit": "µM"}]}]}
